How the values were obtained:
MDA-MB-231 tumor = experiment: In-vivo imaging and biodistribution in MDA-MB-231 tumor-bearing nude mice; set-up: species or system athymic nude mice
Experimental: Athymic nude mice were purchased from Charles River and housed in a specific pathogen-free animal facility at Emory University. In-vivo imaging, blood circulation and biodistribution studies were performed. MDA-MB-231 tumor model was used for testing the in-vivo imaging of these polymer-drug conjugates. Three weeks before the test, the cells were harvested and 5×10^6 cells were suspended in a mixture of 50 μL culture medium and 50 μL Matrigel. The cells were injected into the mammary fat pad of athymic nude mice. When the size of the tumor reached 400-500 mm^3, the near infrared dye (Cy5.5, GE healthcare) labeled conjugates were systemically injected. Polymer drugs containing 10 nmol of cy5.5 were injected into mice through the tail vein. […] For biodistribution studies, mice were killed at time point of 6 and 144 hours to collect major organs and tumors for quantification of cy5.5 fluorescence in organs and tumors.
In-vivo delivery of nanoparticles to solid tumors is a complex process, and can be achieved by both passive and active targeting mechanisms, as shown in FIG. 3A. […] This finding also confirms that in this case the amount of nanoparticles delivered to tumor tissues is primarily determined by the extravasation of nanoparticles (FIG. 3A) though the leaky vascular structures formed during the fast and defective angiogenesis. […]

[1] = tested on: MDA-MB-231 breast cancer cell line; experiment: MTT cytotoxicity assay; type: cell-based, human; settings: two different concentrations, treated 4 hours, 48 hours incubation
Experimental: The cytotoxicity of these conjugates was tested on multiple cancer cell lines. Cytotoxicity effects of the PG-drug conjugates were evaluated by using a standard 3-(4,5-dimethylthiazol-2-yl)-2,5-diphenyl tetrazolium bromide (MTT) assay. The cells were cultured in RPMI 1640 containing 100 units/mL penicillin G, 100 ug/mL streptomycin sulfate. The medium was supplemented with 10% heat-inactivated fetal bovine serum. The tumor cells were cultured in tissue culture flask in a humidified incubator at 37° C. in an atmosphere of 5% CO2 and 95% air. Cancer cells (about 60% confluency) were treated with drug conjugates or free drug (added as DMSO solution) for 4 hours, and then culture medium was replaced with fresh one. After 48 hours incubation, MTT solution was added (incubated for 2 hours) and UV-vis absorption was measured at 490 nm with 670 nm as the reference wavelength.
FIG. 1E summarizes the cytotoxicity test results for the conjugates compared to free TX added as DMSO solution.

Substance: PG-2′-O— succinyl-paclitaxel [GT]
- accumulation at tumor sites, in-vivo optical imaging (MDA-MB-231 tumor; tumors 400-500 mm^3, 6 hours after tail vein injection, increasing over 48 hours): accumulation at the tumor sites
- accumulation in barely palpable tumors (MDA-MB-231 tumor; tumors about 2-3 mm in diameter): very little signal above the background
- cytotoxicity [1]: killed a significant amount of cells

— patent US20110060036A1, “Branched Multifunctional Nanoparticle Conjugates And Their Use” (EMORY UNIVERSITY, priority 2008, published 2011)
